From patent publication US9440982B2 (Eolas Therapeutics, Inc., priority 2012, dated 2016)

The chains behind the UniProt entries cited, without tags or fusion partners.
UniProt O43614, whole entry: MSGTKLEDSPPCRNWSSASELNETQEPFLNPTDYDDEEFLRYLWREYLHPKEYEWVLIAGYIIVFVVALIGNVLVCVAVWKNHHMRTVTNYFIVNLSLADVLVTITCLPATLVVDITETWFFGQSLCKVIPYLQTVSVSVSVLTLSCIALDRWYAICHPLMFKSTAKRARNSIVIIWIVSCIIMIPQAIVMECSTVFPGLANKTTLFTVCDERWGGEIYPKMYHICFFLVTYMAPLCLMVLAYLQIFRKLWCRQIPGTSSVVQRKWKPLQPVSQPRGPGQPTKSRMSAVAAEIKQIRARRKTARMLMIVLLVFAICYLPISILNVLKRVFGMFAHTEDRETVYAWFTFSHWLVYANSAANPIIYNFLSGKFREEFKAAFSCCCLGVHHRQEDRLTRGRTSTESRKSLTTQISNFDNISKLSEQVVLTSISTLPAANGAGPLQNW

What follows are molecules tested against T1, OX2 (Homo sapiens, UniProt O43614) (assay: Orexin receptor cell-based functional assay, [Ca2+]i by FLIPR, CHO-OX2 cells). Conditions: CHO-OX2 cells, [Ca2+]i by FLIPR, antagonist dose-range 0.1 nM-10 μM, EC90 of OXA; read-out: OX2.
T1 construct: expressed in transfected cells; host or cells: CHO (CHO-OX2, kept under selection antibiotic)
In the case of `C[C@@H]1CCCN(C(=O)c2ccc(F)cc2-n2nccn2)[C@@H]1CNc1ncc(C(F)(F)F)cn1` [Example A251, (4-Fluoro-2-(2H-1,2,3-triazol-2-yl)phenyl)((2S,3R)-3-methyl-2-(((5-(trifluoromethyl)pyrimidin-2-yl)amino)methyl)piperidin-1-yl)methanone], the IC50 is reported as greater than 5 µM.
`C[C@@H]1CCCN(C(=O)c2cccc(F)c2-n2nccn2)[C@@H]1CNc1ccc(Cl)cn1` [Example A254, ((2S,3R)-2-(((5-Chloropyridin-2-yl)amino)methyl)-3-methylpiperidin-1-yl)(3-fluoro-2-(2H-1,2,3-triazol-2-yl)phenyl)methanone] showed an IC50 greater than 5 µM.
For `C[C@@H]1CCCN(C(=O)c2cccc(F)c2-n2nccn2)[C@@H]1CNc1ncc(Cl)cn1` [Example A255, ((2S,3R)-2-(((5-Chloropyrimidin-2-yl)amino)methyl)-3-methylpiperidin-1-yl)(3-fluoro-2-(2H-1,2,3-triazol-2-yl)phenyl)methanone], the IC50 was greater than 5 µM.
In the case of `C[C@@H]1CCCN(C(=O)c2cccc(F)c2-n2nccn2)[C@@H]1CNc1ncc(C(F)(F)F)cn1` [Example A256, (3-Fluoro-2-(2H-1,2,3-triazol-2-yl)phenyl)((2S,3R)-3-methyl-2-(((5-(trifluoromethyl)pyrimidin-2-yl)amino)methyl)piperidin-1-yl)methanone], the IC50 is reported as greater than 5 µM.
Work on `C[C@@H]1CCCN(C(=O)c2cccc(F)c2-n2nccn2)[C@@H]1CNc1ccc(C(F)(F)F)cn1` [Example A257, (3-Fluoro-2-(2H-1,2,3-triazol-2-yl)phenyl)((2S,3R)-3-methyl-2-(((5-(trifluoromethyl)pyridin-2-yl)amino)methyl)piperidin-1-yl)methanone] yielded an IC50 greater than 5 µM.
With `C[C@@H]1CCCN(C(=O)c2c(F)cccc2-n2nccn2)[C@@H]1CNc1ccc(C(F)(F)F)cn1` [Example A258, (2-Fluoro-6-(2H-1,2,3-triazol-2-yl)phenyl)((2S,3R)-3-methyl-2-(((5-(trifluoromethyl)pyridin-2-yl)amino)methyl)piperidin-1-yl)methanone] the IC50 was greater than 5 µM.
`C[C@@H]1CCCN(C(=O)c2c(F)cccc2-n2nccn2)[C@@H]1CNc1ncc(C(F)(F)F)cn1` [Example A259, (2-Fluoro-6-(2H-1,2,3-triazol-2-yl)phenyl)((2S,3R)-3-methyl-2-(((5-(trifluoromethyl)pyrimidin-2-yl)amino)methyl)piperidin-1-yl)methanone] showed an IC50 greater than 5 µM.
In the case of `C[C@@H]1CCCN(C(=O)c2c(F)cccc2-n2nccn2)[C@@H]1CNc1ncc(Cl)cn1` [Example A260, ((2S,3R)-2-(((5-Chloropyrimidin-2-yl)amino)methyl)-3-methylpiperidin-1-yl)(2-fluoro-6-(2H-1,2,3-triazol-2-yl)phenyl)methanone], the IC50 is reported as greater than 5 µM.
With `C[C@@H]1CCCN(C(=O)c2c(F)cccc2-n2nccn2)[C@@H]1CNc1ccc(Cl)cn1` [Example A261, ((2S,3R)-2-(((5-Chloropyridin-2-yl)amino)methyl)-3-methylpiperidin-1-yl)(2-fluoro-6-(2H-1,2,3-triazol-2-yl)phenyl)methanone] the IC50 was greater than 5 µM.
For `Cc1cccc(C(=O)N2CCC[C@@H](C)[C@H]2CNc2ccc(C(F)(F)F)cn2)c1-n1nccn1` [Example A266, ((2S,3R)-3-Methyl-2-(((5-(trifluoromethyl)pyridin-2-yl)amino)methyl)piperidin-1-yl)(3-methyl-2-(2H-1,2,3-triazol-2-yl)phenyl)methanone], the IC50 was 1.1 µM.
`Cc1cccc(C(=O)N2CCC[C@@H](C)[C@H]2CNc2ncc(C(F)(F)F)cn2)c1-n1nccn1` [Example A267, ((2S,3R)-3-Methyl-2-(((5-(trifluoromethyl)pyrimidin-2-yl)amino)methyl)piperidin-1-yl)(3-methyl-2-(2H-1,2,3-triazol-2-yl)phenyl)methanone] was tested, and the IC50 was 2.6 µM.
With `Cc1cccc(C(=O)N2CCC[C@@H](C)[C@H]2CNc2ncc(Cl)cn2)c1-n1nccn1` [Example A268, ((2S,3R)-2-(((5-Chloropyrimidin-2-yl)amino)methyl)-3-methylpiperidin-1-yl)(3-methyl-2-(2H-1,2,3-triazol-2-yl)phenyl)methanone] the IC50 was 1.7 µM.
Work on `Cc1ccc(C(=O)N2CCC[C@@H](C)[C@H]2CNc2ncc(Cl)cn2)c(-n2nccn2)c1` [Example A271, ((2S,3R)-2-(((5-Chloropyrimidin-2-yl)amino)methyl)-3-methylpiperidin-1-yl)(4-methyl-2-(2H-1,2,3-triazol-2-yl)phenyl)methanone] yielded an IC50 of 9.4 µM.
In the case of `Cc1ccc(C(=O)N2CCC[C@@H](C)[C@H]2CNc2ncc(C(F)(F)F)cn2)c(-n2nccn2)c1` [Example A272, ((2S,3R)-3-Methyl-2-(((5-(trifluoromethyl)pyrimidin-2-yl)amino)methyl)piperidin-1-yl)(4-methyl-2-(2H-1,2,3-triazol-2-yl)phenyl)methanone], the IC50 is reported as 8.5 µM.
Molecule `Cc1ccc(C(=O)N2CCC[C@@H](C)[C@H]2CNc2ccc(C(F)(F)F)cn2)c(-n2nccn2)c1` [Example A273, ((2S,3R)-3-Methyl-2-(((5-(trifluoromethyl)pyridin-2-yl)amino)methyl)piperidin-1-yl)(4-methyl-2-(2H-1,2,3-triazol-2-yl)phenyl)methanone] has an IC50 of 4.4 µM.
`Cc1cccc(C(=O)N2CCC[C@@H](C)[C@H]2CNc2ccc(C(F)(F)F)cn2)c1-c1ncccn1` [Example A298, ((2S,3R)-3-Methyl-2-(((5-(trifluoromethyl)pyridin-2-yl)amino)methyl)piperidin-1-yl)(3-methyl-2-(pyrimidin-2-yl)phenyl)methanone] gave an IC50 of 0.483 µM.
For `Cc1cccc(C(=O)N2CCC[C@@H](C)[C@H]2CNc2ncc(C(F)(F)F)cn2)c1-c1ncccn1` [Example A299, ((2S,3R)-3-Methyl-2-(((5-(trifluoromethyl)pyrimidin-2-yl)amino)methyl)piperidin-1-yl)(3-methyl-2-(pyrimidin-2-yl)phenyl)methanone], the IC50 was 2.35 µM.
For `Cc1cccc(-c2ncccn2)c1C(=O)N1CCC[C@@H](C)[C@H]1CNc1ncc(C(F)(F)F)cn1` [Example A307, ((2S,3R)-3-Methyl-2-(((5-(trifluoromethyl)pyrimidin-2-yl)amino)methyl)piperidin-1-yl)(2-methyl-6-(pyrimidin-2-yl)phenyl)methanone], the IC50 was greater than 5 µM.
In the case of `C[C@@H]1CCCN(C(=O)c2cc(F)ccc2-n2nccn2)[C@@H]1CNc1ccc(C(F)(F)F)cn1` [Example A310], the IC50 is reported as greater than 5 µM.
In the case of `Cc1ccc(-c2ncccn2)c(C(=O)N2CCC(F)(F)C[C@H]2CNc2ncc(C(F)(F)F)cn2)c1` [Example A312, (S)-(4,4-Difluoro-2-(((5-(trifluoromethyl)pyrimidin-2-yl)amino)methyl)piperidin-1-yl)(5-methyl-2-(pyrimidin-2-yl)phenyl)methanone], the IC50 is reported as greater than 5 µM.
`C[C@@H]1CCCN(C(=O)c2ccccc2-n2nccn2)[C@@H]1CNc1ncc(C(F)(F)F)cn1` [Example A313, (2-(2H-1,2,3-Triazol-2-yl)phenyl)((2S,3R)-3-methyl-2-(((5-(trifluoromethyl)pyrimidin-2-yl)amino)methyl)piperidin-1-yl)methanone] was tested, and the IC50 was 3.6 µM.
Molecule `C[C@@H]1CCCN(C(=O)c2ccccc2-n2nccn2)[C@@H]1CNc1ccc(C(F)(F)F)cn1` [Example A314, (2-(2H-1,2,3-Triazol-2-yl)phenyl)((2S,3R)-3-methyl-2-(((5-(trifluoromethyl)pyridin-2-yl)amino)methyl)piperidin-1-yl)methanone] has an IC50 of 2.7 µM.
In the case of `C[C@@H]1CCCN(C(=O)c2ccccc2-c2ncccn2)[C@@H]1CNc1ccc(C(F)(F)F)cn1` [Example A316, ((2S,3R)-3-Methyl-2-(((5-(trifluoromethyl)pyridin-2-yl)amino)methyl)piperidin-1-yl)(2-(pyrimidin-2-yl)phenyl)methanone], the IC50 is reported as greater than 5 µM.
For `C[C@@H]1CCCN(C(=O)c2ccccc2-c2ncccn2)[C@@H]1CNc1ncc(C(F)(F)F)cn1` [Example A317, ((2S,3R)-3-Methyl-2-(((5-(trifluoromethyl)pyrimidin-2-yl)amino)methyl)piperidin-1-yl)(2-(pyrimidin-2-yl)phenyl)methanone], the IC50 was greater than 1 µM.
`Cc1ccc(-n2nccn2)c(C(=O)N2CCC[C@@H](C)[C@H]2CNc2ccc(C(F)(F)F)cn2)c1F` [Example A318, (2-Fluoro-3-methyl-6-(2H-1,2,3-triazol-2-yl)phenyl)((2S,3R)-3-methyl-2-(((5-(trifluoromethyl)pyridin-2-yl)amino)methyl)piperidin-1-yl)methanone] was tested, and the IC50 was 2.5 µM.
Molecule `Cc1ccc(-n2nccn2)c(C(=O)N2CCC[C@@H](C)[C@H]2CNc2ncc(C(F)(F)F)cn2)c1F` [Example A319, (2-Fluoro-3-methyl-6-(2H-1,2,3-triazol-2-yl)phenyl)((2S,3R)-3-methyl-2-(((5-(trifluoromethyl)pyrimidin-2-yl)amino)methyl)piperidin-1-yl)methanone] has an IC50 of 4.5 µM.
With `C[C@@H]1CCCN(C(=O)c2cc(C#N)ccc2-n2nccn2)[C@@H]1CNc1ncc(C(F)(F)F)cn1` [Example A322, 3-((2S,3R)-3-Methyl-2-(((5-(trifluoromethyl)pyrimidin-2-yl)amino)methyl)piperidine-1-carbonyl)-4-(2H-1,2,3-triazol-2-yl)benzonitrile] the IC50 was greater than 5 µM.
In the case of `C[C@@H]1CCCN(C(=O)c2cc(C#N)ccc2-c2ncccn2)[C@@H]1CNc1ncc(C(F)(F)F)cn1` [Example A323, 3-((2S,3R)-3-Methyl-2-(((5-(trifluoromethyl)pyrimidin-2-yl)amino)methyl)piperidine-1-carbonyl)-4-(pyrimidin-2-yl)benzonitrile], the IC50 is reported as greater than 5 µM.
In the case of `C[C@@H]1CCCN(C(=O)c2c(-n3nccn3)ccc(F)c2F)[C@@H]1CNc1ccc(C(F)(F)F)cn1` [Example A336, (2,3-Difluoro-6-(2H-1,2,3-triazol-2-yl)phenyl)((2S,3R)-3-methyl-2-(((5-(trifluoromethyl)pyridin-2-yl)amino)m*ethyl)piperidin-1-yl)methanone], the IC50 is reported as greater than 5 µM.
With `C[C@@H]1CCCN(C(=O)c2c(-n3nccn3)ccc(F)c2F)[C@@H]1CNc1ncc(C(F)(F)F)cn1` [Example A337, (2,3-Difluoro-6-(2H-1,2,3-triazol-2-yl)phenyl)((2S,3R)-3-methyl-2-(((5-(trifluoromethyl)pyrimidin-2-yl)amino)methyl)piperidin-1-yl)methanone] the IC50 was greater than 5 µM.
